In US20100189647A1, “Experimental Animal As Pathological Model, Method of Producing the Experimental Animal, and Method of Using the Experimental Animal” (priority 2006, published 2010):

Tested on: hemoglobin
Experiment: Methemoglobin formation in blood after intraperitoneal administration
Assay type: in vivo, rat
Settings: 50 mg/kg intraperitoneal
Experimental: A cannula was placed beforehand in the carotid artery of rats, and production of methemoglobin converted from hemoglobin (hereinafter referred to as methemoglobin) was tracked using blood samples collected over time, at 15 and 30 min and 1, 2, 3, 4, 5, and 6 h, from the placed silicon tube.

`O=NO` [sodium nitrite] was tested. Which blood methemoglobin level (30 min after administration) did it give?
Its blood methemoglobin level is 4.30 g/dL.

What about the blood methemoglobin level (1 h after administration) of the same compound?
Its blood methemoglobin level is 2.93 g/dL.

And the blood methemoglobin level (2 h after administration)?
The blood methemoglobin level was 1.70 g/dL.

What about the blood methemoglobin level (3 h after administration) of the same compound?
The blood methemoglobin level was 1.0 g/dL.

And the blood methemoglobin level (4 h after administration)?
The blood methemoglobin level was 0.52 g/dL.

What about the blood methemoglobin level (5 h after administration) of the same compound?
Its blood methemoglobin level is 0.22 g/dL.

What about the blood methemoglobin level (within 6 h (returned to baseline level before administration)) of the same compound?
Its blood methemoglobin level is 0.16 g/dL.
